Experimental data taken from US20040024024A1, “Aromatic sulfone hydroxamates and their use as protease inhibitors” (priority 2001, published 2004).
Where two headings read alike, the source gives them in different places.

Sequences of proteins named here, by UniProt entry; tags and fusion partners are left off. Residues count along the entry.
UniProt P03956, 100-469 limits assumed: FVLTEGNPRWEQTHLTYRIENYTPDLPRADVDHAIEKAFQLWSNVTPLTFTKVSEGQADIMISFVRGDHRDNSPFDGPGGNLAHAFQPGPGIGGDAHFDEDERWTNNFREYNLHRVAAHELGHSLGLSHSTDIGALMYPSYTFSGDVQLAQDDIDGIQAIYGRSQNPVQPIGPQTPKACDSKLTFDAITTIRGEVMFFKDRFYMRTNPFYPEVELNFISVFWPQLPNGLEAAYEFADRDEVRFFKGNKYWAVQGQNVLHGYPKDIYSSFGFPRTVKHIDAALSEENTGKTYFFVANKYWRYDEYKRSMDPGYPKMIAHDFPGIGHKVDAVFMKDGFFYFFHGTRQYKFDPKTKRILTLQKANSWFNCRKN
UniProt P14780, 107-707 limits assumed: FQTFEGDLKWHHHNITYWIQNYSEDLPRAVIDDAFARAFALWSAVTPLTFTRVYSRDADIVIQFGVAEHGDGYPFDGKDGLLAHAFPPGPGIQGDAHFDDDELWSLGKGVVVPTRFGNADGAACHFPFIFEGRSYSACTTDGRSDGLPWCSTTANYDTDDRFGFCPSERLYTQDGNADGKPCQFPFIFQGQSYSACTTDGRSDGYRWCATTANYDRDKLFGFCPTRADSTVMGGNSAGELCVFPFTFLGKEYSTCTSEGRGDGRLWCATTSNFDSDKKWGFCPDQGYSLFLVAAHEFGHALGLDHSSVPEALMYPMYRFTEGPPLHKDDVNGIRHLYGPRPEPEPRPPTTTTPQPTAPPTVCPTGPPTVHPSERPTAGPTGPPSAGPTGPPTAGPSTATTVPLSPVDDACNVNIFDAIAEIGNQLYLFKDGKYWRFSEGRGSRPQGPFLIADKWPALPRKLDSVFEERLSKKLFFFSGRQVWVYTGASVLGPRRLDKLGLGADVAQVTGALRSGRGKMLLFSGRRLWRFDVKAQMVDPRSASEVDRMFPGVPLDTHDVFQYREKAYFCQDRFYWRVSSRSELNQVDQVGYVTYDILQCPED
UniProt P08253, 110-660 limits assumed: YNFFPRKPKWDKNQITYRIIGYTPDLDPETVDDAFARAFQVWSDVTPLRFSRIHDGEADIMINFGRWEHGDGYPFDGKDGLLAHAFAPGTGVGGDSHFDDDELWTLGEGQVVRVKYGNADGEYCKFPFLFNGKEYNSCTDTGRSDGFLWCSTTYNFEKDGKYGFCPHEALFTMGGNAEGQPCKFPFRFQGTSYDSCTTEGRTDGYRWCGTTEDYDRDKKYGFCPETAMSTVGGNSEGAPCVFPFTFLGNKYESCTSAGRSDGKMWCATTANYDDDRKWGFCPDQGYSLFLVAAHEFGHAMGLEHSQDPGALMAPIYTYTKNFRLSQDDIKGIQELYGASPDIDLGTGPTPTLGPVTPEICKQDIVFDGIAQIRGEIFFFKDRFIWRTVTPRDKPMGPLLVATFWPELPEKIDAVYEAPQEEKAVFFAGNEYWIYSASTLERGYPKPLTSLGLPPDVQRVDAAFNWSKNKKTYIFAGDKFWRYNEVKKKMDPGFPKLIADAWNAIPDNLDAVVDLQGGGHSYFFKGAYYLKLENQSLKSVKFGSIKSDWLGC

How the values were obtained:
Human recombinant MMP-1 [1] = target: T1, Human recombinant MMP-1 (Homo sapiens, UniProt P03956); assay: In vitro MMP inhibition, Ki determination (fluorogenic substrate II); conditions: read-out: MMP-1 (Ki)
Human recombinant MMP-9 [2] = target: T2, Human recombinant MMP-9 (Homo sapiens, UniProt P14780); assay: as above; conditions: read-out: MMP-9 (Ki)
Human recombinant MMP-14 [3] = target: T3, Human recombinant MMP-14 (Homo sapiens, UniProt P50281); assay: as above; conditions: read-out: MMP-14 (Ki)
Human recombinant MMP-13 [4] = target: T4, Human recombinant MMP-13 (Homo sapiens, UniProt P45452); assay: as above; conditions: read-out: MMP-13 (Ki)
Human recombinant MMP-2 [5] = target: T5, Human recombinant MMP-2 (Homo sapiens, UniProt P08253); assay: In vitro MMP inhibition, IC50 determination (fluorogenic substrate I); conditions: read-out: MMP-2 IC50
Human recombinant MMP-1 [6] = target: T1, Human recombinant MMP-1; assay: as above; conditions: read-out: MMP-1 IC50; substrate (I) 4 μM, room temperature; values not in parenthesis; tested form: HCl
Human recombinant MMP-9 [7] = target: T2, Human recombinant MMP-9; assay: as above; conditions: read-out: MMP-9 IC50; substrate (I) 4 μM, room temperature; values not in parenthesis; tested form: HCl
Human recombinant MMP-14 [8] = target: T3, Human recombinant MMP-14; assay: as above; conditions: read-out: MMP-14 IC50; substrate (I) 4 μM, room temperature; values not in parenthesis; tested form: HCl
Human recombinant MMP-13 [9] = target: T4, Human recombinant MMP-13; assay: as above; conditions: read-out: MMP-13 IC50
Human recombinant MMP-2 [10] = target: T5, Human recombinant MMP-2; assay: In vitro MMP inhibition, Ki determination (fluorogenic substrate II); conditions: read-out: MMP-2 (Ki); value in parenthesis
[11] = substrate (II) 4 μM, 1 hr room temperature, apparent Ki, values in parenthesis, tested form: HCl
[12] = substrate (I) 4 μM, room temperature, values not in parenthesis, tested form: HCl

Row | SMILES | Ki (Human recombinant MMP-1 [1]; [11]) | Ki (Human recombinant MMP-9 [2]; [11]) | Ki (Human recombinant MMP-14 [3]; [11]) | Ki (Human recombinant MMP-13 [4]; [11]) | IC50 (Human recombinant MMP-2 [5]; [12]) | IC50 (Human recombinant MMP-1 [6]) | IC50 (Human recombinant MMP-9 [7]) | IC50 (Human recombinant MMP-14 [8]) | IC50 (Human recombinant MMP-13 [9]; [12]) | Ki (Human recombinant MMP-2 [10]) | Ki (Human recombinant MMP-1 [1]; value in parenthesis) | Ki (Human recombinant MMP-9 [2]; value in parenthesis) | Ki (Human recombinant MMP-14 [3]; value in parenthesis) | Ki (Human recombinant MMP-13 [4]; value in parenthesis) | IC50 (Human recombinant MMP-2 [5]; value outside parenthesis) | IC50 (Human recombinant MMP-13 [9]; value outside parenthesis)
1 | O=C(NO)C1(S(=O)(=O)c2ccc(OCCCc3cccc(-c4ccccc4)c3)cc2)CCN(C2CC2)CC1 | > 10000 nM | 370 nM | 4450 nM | 6.55 nM | 158 nM | > 10000 nM | 1030 nM | > 10000 nM | 0.9 nM |  |  |  |  |  |  | 
2 | Cc1ccc(-c2cccc(CCCOc3ccc(S(=O)(=O)C4(C(=O)NO)CCOCC4)cc3)c2)cc1 |  |  |  |  |  |  |  |  |  | 4090 nM | > 10000 nM | 3480 nM | > 10000 nM | 11.5 nM | 2120 nM | 12.2 nM
